Test results taken from US5489607A, “Use of enadoline in the treatment of benign prostatic enlargement” (dated 1996).

Sequences of proteins named here, by UniProt entry; tags and fusion partners are left off. A change or cut given only in a name is not applied to a line headed by its entry.
UniProt P41145: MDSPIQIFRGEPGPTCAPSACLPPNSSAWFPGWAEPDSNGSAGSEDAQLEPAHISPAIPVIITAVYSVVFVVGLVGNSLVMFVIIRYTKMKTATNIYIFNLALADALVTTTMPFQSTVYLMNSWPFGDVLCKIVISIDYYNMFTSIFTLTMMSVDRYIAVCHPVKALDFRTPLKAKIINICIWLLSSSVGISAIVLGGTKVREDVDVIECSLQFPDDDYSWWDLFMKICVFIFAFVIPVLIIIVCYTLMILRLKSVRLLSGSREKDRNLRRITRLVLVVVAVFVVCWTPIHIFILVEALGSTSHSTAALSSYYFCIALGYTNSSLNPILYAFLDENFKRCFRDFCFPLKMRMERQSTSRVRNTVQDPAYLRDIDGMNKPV

How the values were obtained:
kappa opioid = kappa opioid (Homo sapiens, UniProt P41145); experiment: kappa opioid affinity
rat = rat paw pressure test for analgesia; conditions: iv
prostate [1] = experiment: prostate weights and microscopy after oral administration for 4 weeks; conditions: for Prostate Wt (g) / Prostate Wt (g)/100 (g) Body Wt / Prostate Wt (g)/Brain Wt (g): oral, male Beagle dogs, mean + standard error, N=3
prostate [2] = experiment: prostate weights and microscopy after continuous intravenous infusion for 4 weeks; conditions: for Prostate Wt (g) / Prostate Wt (g)/100 (g) Body Wt / Prostate Wt (g)/Brain Wt (g): continuous intravenous infusion, male Beagle dogs, mean + standard error, N=3

SMILES: CN(C(=O)Cc1cccc2occc12)[C@H]1CC[C@@]2(CCCO2)C[C@@H]1N1CCCC1
- Ki (kappa opioid; kappa opioid affinity): 0.73 nM
- μ/kappa ratio (kappa opioid; selectivity): 798
- cytotoxicity (cytotoxicity (statement)): not cytotoxic
- MPE50 (rat): 0.030
- Prostate Wt (g) (prostate [1]; 50 μg/kg): 4.5 + 0.20 g
- Prostate Wt (g)/100 (g) Body Wt (prostate [1]; 50 μg/kg): 0.037 + 0.0003 g/100 g
- Prostate Wt (g)/Brain Wt (g) (prostate [1]; 50 μg/kg): 0.061 + 0.0029 g/g
- Prostate Wt (g) (prostate [1]; 200 μg/kg): 3.7 + 0.68 g
- Prostate Wt (g)/100 (g) Body Wt (prostate [1]; 200 μg/kg): 0.029 + 0.0038 g/100 g
- Prostate Wt (g)/Brain Wt (g) (prostate [1]; 200 μg/kg): 0.048 + 0.0111 g/g
- Prostate Wt (g) (prostate [1]; 600 μg/kg): 4.6 + 0.57 g
- Prostate Wt (g)/100 (g) Body Wt (prostate [1]; 600 μg/kg): 0.041 + 0.0049 g/100 g
- Prostate Wt (g)/Brain Wt (g) (prostate [1]; 600 μg/kg): 0.058 + 0.0065 g/g
- prostatic atrophy, microscopic evaluation (prostate [1]; oral, 50, 200 or 600 μg/kg/day, dogs, confirmed by blinded histologic review): Prostatic atrophy was noted microscopically in all dogs
- Prostate Wt (g) (prostate [2]; 1 μg/kg/hr): 6.0 + 0.80 g
- Prostate Wt (g)/100 (g) Body Wt (prostate [2]; 1 μg/kg/hr): 0.054 + 0.0071 g/100 g
- Prostate Wt (g)/Brain Wt (g) (prostate [2]; 1 μg/kg/hr): 0.076 + 0.0125 g/g
- Prostate Wt (g) (prostate [2]; 35 μg/kg/hr): 6.2 + 1.55 g
- Prostate Wt (g)/100 (g) Body Wt (prostate [2]; 35 μg/kg/hr): 0.055 + 0.0116 g/100 g
- Prostate Wt (g)/Brain Wt (g) (prostate [2]; 35 μg/kg/hr): 0.074 + 0.0179 g/g
- Prostate Wt (g) (prostate [2]; 5 mg/kg/hr): 5.2 + 0.48 g
- Prostate Wt (g)/100 (g) Body Wt (prostate [2]; 5 mg/kg/hr): 0.046 + 0.0035 g/100 g
- Prostate Wt (g)/Brain Wt (g) (prostate [2]; 5 mg/kg/hr): 0.071 + 0.0090 g/g
- prostatic atrophy, blinded histologic review (prostate [2]; continuous intravenous infusion, 1, 5 or 35 μg/kg/hour, dogs): prostatic atrophy in all dogs
